The test system of the data set is Swiss Albino mice with induced infection (Staphylococcus aureus) and aseptic inflammation (turpentine). In words: Biodistribution in mice with induced infection and aseptic inflammation. The class given is in vivo. The conditions noted are these: for Urine radioactivity: per sample. The method, then:
The in vivo behavior of HPLC purified technetium-99m complexes 1′–6′ was evaluated through biodistribution studies in Swiss Albino mice (40 ± 5 g) with induced infection and aseptic inflammation. The experiment was conducted in accordance with the guidelines for the protection of animals used for scientific purposes. Mice were divided into groups and prepared for biodistribution studies by inducing infection and aseptic inflammation. Twenty-four hours prior to the injection of the technetium complexes, the left thigh muscle of each mouse was inoculated with 50 µL of a Staphylococcus aureus suspension (1 × 10^6 CFU/mL) to induce infection. Aseptic inflammation was induced in the right thigh muscle by injecting 50 µL of turpentine oil. The technetium-99m complexes were administered intravenously via the tail vein. Each mouse received an injection of 0.037 MBq of the respective technetium-99m complex. The biodistribution was studied at two different time points, 15 min and 120 min post-injection. At each time point, the mice were sacrificed under anesthesia. Blood samples were obtained by cardiac puncture. The organs of interest were collected after dissection, including the liver, heart, kidneys, stomach, intestines, spleen, muscle (normal, infected, and inflamed), lungs, pancreas, and urinary bladder. The organs were made free from adhering tissues and transferred into pre-weighed counting vials. The radioactivity of the collected samples was measured using a shielded well-type gamma counter. The results were expressed as a percentage of injected dose per gram of tissue (% ID/g). The radioactivity ratios in infected muscle to normal muscle and inflamed muscle to normal muscle were calculated to assess the specificity and selectivity of the technetium complexes for infection and inflammation.

Take “fac-[M(CO)3(Cip-DTC)(DMPP)] [complex 5′]”: under “15 min post i.v. injection”, the “Aseptic Infl. (turpentine inflamed muscle) radioactivity” value is given as 0.51 ± 0.14 %ID/g, the Blood radioactivity stood at 0.91 ± 0.03 %ID/g, the Heart radioactivity was 2.98 ± 0.46 %ID/g and the “Infection (S. aureus infected muscle) radioactivity” value (shortened to “Infection”) is 0.94 ± 0.31 %ID/g. Also, under “15 min post i.v. injection”, the Intestines radioactivity was 0.61 ± 0.17 %ID/g, the Kidneys radioactivity was determined as 3.20 ± 0.35 %ID/g, the Stomach radioactivity amounted to 0.53 ± 0.22 %ID/g and the Urine radioactivity turned out to be 0.03 ± 0.01 %ID. Also, for the setting “120 min post i.v. injection”, the “Aseptic Infl. (turpentine inflamed muscle) radioactivity” value amounted to 2.37 ± 0.34 %ID/g, the Blood radioactivity turned out to be 0.66 ± 0.05 %ID/g, the Heart radioactivity is given as 4.30 ± 1.47 %ID/g and the “Infection” value came out at 3.10 ± 0.46 %ID/g. In addition, where the note is “120 min post i.v. injection”, the Stomach radioactivity worked out at 2.33 ± 0.44 %ID/g and the Urine radioactivity is given as 0.32 ± 0.12 %ID.

On to “fac-[^99mTc(CO)3(Cip-DTC)(H2O)] [complex 1′]”, for which, where the note is “15 min post i.v. injection”, the “Aseptic Infl. (turpentine inflamed muscle) radioactivity” value is on record as 0.78 ± 0.51 %ID/g, the Blood radioactivity amounted to 14.07 ± 0.83 %ID/g, the Heart radioactivity was 1.93 ± 0.23 %ID/g and the Urine radioactivity is recorded as 0.15 ± 0.08 %ID. Where the note is “120 min post i.v. injection”, the “Aseptic Infl. (turpentine inflamed muscle) radioactivity” value is 1.33 ± 0.09 %ID/g, the Blood radioactivity was 7.76 ± 0.29 %ID/g, the Heart radioactivity is given as 1.58 ± 0.21 %ID/g and the “Infection” value was determined as 1.80 ± 0.39 %ID/g. Also, for the setting “120 min post i.v. injection”, the Intestines radioactivity was found to be 1.81 ± 0.15 %ID/g, the Pancreas radioactivity was determined as 0.82 ± 0.06 %ID/g, the Stomach radioactivity was 1.42 ± 0.30 %ID/g and the Urine radioactivity was 1.57 ± 0.98 %ID.

The values above are taken from paper PMC11435093, “Synthesis and Evaluation of ^99mTc(CO)3 Complexes with Ciprofloxacin Dithiocarbamate for Infection Imaging” (Pharmaceutics, 2024).
